# Results as given in PubChem BioAssay AID1952 (The Scripps Research Institute Molecular Screening Center, 2009).
# By UniProt entry, the sequences of proteins in these tests, tags left out. Where a name states a change or a piece, a line headed by the entry shows the natural chain unless it says otherwise.
# UniProt P48145: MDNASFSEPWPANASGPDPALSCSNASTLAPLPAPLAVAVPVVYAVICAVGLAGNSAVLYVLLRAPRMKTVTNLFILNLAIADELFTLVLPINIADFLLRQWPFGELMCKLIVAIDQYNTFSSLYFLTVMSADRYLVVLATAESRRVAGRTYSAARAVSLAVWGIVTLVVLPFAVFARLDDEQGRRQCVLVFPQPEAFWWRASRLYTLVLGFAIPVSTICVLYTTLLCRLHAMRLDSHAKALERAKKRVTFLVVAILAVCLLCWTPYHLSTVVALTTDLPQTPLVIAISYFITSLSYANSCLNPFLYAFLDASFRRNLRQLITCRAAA
# Only a part is listed here, and it is no random draw. Calls of active or inactive are those of the source. No stated cut-off is given here; in the data, active means inhibition above about 24%; inactive means the rest.
# Molecular target: Neuropeptides B/W receptor type 1 (Homo sapiens) (UniProt P48145)
# Assay: blockers of human NPBW1 receptor – cell-based, fluorescence, single concentration, confirmation (AID 1952);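 further: stimulated with the GPR7 agonist NPW; 0% = agonist plus vehicle and 100% = vehicle alone without agonist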
# Conditions: GPR7-expressing cells, calcium fluorescence antagonist mode; at 4.4 µM; hits give high values
row,SMILES,inhibition
1,O=c1c2cc([N+](=O)[O-])ccc2[nH]c2c([N+](=O)[O-])cc([N+](=O)[O-])cc12,active: 72.8%
2,COc1ccccc1OP(=O)(Nc1ccc(C)cn1)Oc1ccccc1OC,inactive: -8.08%
